Reference: PubChem BioAssay AID588549 (Broad Institute, 2011)
The list shows a part of the results, in another mix than the full data. Active and inactive are the calls of the source. No stated cut-off is given here; in the data, active means inhibition above about 8.5% (passing the limit was not always enough); inconclusive means no clear call, values can overlap the other calls.

Test system: Mycobacterium tuberculosis FadD28 fatty-acid-AMP ligase
Experiment: inhibitors of FadD28 bisubstrate probe binding, primary screen, biochemical, fluorescence polarization, single point (AID 588549)
Conditions: at 12.5 µM, stronger effect = higher value

Q: CCC(=O)N(c1ccccc1)C1(COC)CCN(CCn2nnn(CC)c2=O)CC1 was tested. Which inhibition did it give?
A: inactive: -5.52%

Q: CCC(=O)N(c1ccccc1)C1(COC)CCN(CCc2cccs2)CC1 was tested. Which inhibition did it give?
A: inactive: 1.41%
